Measured values published in ChEMBL document CHEMBL1126296, “Orally active aldose reductase inhibitors: indazoleacetic, oxopyridazineacetic, and oxopyridopyridazineacetic acid derivatives” (J Med Chem, 1992).

Molecular target: Aldo-keto reductase family 1 member B1 (Homo sapiens, UniProt P15121)
Test: Inhibitory activity against aldose reductase isolated from human placenta

O=C(O)Cc1nn(Cc2nc3cc(C(F)(F)F)ccc3s2)c(=O)c2ccccc12 [ZOPOLRESTAT]
IC50: 4.8 nM
